This assay deals with T1, recombinant delta opiod receptor expressed in CHO-K1 cells (Homo sapiens, UniProt P41143).
T1 construct: purchased Receptor Biology Inc., Beltsville, Md; host or cells: CHO-K1
Description: biochemical. Type of assay: binding.

Chains of the proteins cited; added tags and fusions are not shown.
UniProt P41143, whole entry: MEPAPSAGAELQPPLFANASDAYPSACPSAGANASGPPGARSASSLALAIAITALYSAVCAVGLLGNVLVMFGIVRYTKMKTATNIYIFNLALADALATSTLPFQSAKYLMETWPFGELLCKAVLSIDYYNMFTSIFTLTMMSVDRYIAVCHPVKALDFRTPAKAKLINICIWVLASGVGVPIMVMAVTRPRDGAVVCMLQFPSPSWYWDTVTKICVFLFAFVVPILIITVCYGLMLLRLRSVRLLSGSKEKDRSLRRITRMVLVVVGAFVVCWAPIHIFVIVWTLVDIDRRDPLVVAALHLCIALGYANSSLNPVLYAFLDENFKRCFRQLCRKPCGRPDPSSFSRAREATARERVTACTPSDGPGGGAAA

For orientation: Ki means the dissociation constant of the complex between target and ligand, obtained from inhibition or displacement. In the case of `CN1CC[C@]23c4c5ccc(O)c4O[C@H]2[C@@H](O)CC[C@H]3[C@H]1C5` [Dihydromorphine, reference compound], the inhibition constant (Ki) was determined as 212 nM.

Source of the values: US6740641B2 (priority 2001, dated 2004).
